High-throughput results deposited in PubChem by National Center for Advancing Translational Sciences (NCATS).
DT40 TDP1 CPT: growth inhibition of DT40 Tdp1-/-;hTDP1 cells with camptothecin (screen for TDP1 inhibitors); 420,000 compounds, 12% hits; Potency, µM (doses to about 46.2 µM), without a hit: at the top dose activity change, negative = growth inhibition, hits mostly inhibitors; chicken DT40 Tdp1-/-;hTDP1 cells + 20 nM CPT, ATP luminescence, 48 h; further: potency means the concentration at half of the fitted maximal effect; on the % scale 0 is the no-effect control and ±100 the full control effect; nearly all actives have a fitted effect of over 55% in size
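Chicken DT40 Tdp1-/- cells complemented with human TDP1, 400 cells/well, exposed to compounds plus 20 nM camptothecin for at least 48 h at 37 C; viability read as ATP content by CellTiter-Glo luminescence.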
miR-21 FLuc: miR-21 reporter, rising signal. HeLa miR-21 FLuc reporter, luciferase, 48 h. Potency, µM (highest dose often 38.3 µM), for the others: at the highest dose reporter change, positive = more light. 340,000 tested, under 10 active. AID 2288; active = well fitted rising curve with a large enough effect; inconclusive = small, poorly fitted or top-dose-only effect; inactive = no such curve, though single readings can be large or run the other way;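 further: % of control where 0% means no effect; miR-21 action dims this reporter so a rising signal means less miR-21 action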
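HeLa cells endogenously expressing miR-21, stably carrying CMV-driven firefly luciferase with a downstream miR-21 binding site, 2000 cells/well. Titrations up to approximately 40 uM, 48 hours; luciferase luminescence read.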
TDP1 cell noCPT: qHTS for Inhibitors of human tyrosyl-DNA phosphodiesterase 1 (TDP1): qHTS in cells in absence of CPT | AID 686978, 2013 | DT40 Tdp1-/- hTDP1 cells, no CPT, ATP luminescence, 48 h | 420,000 compounds, 15% hits | Potency, µM (top dose mostly 46.2 µM), inactives show top-dose activity change, negative = growth inhibition, actives largely listed as inhibitors; further: potency means the concentration at half of the fitted maximal effect; on the % scale 0 is the no-effect control and ±100 the full control effect; nearly all actives have a fitted effect of over 55% in size
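Luminescent ATP content (CellTiter-Glo) served as the growth readout. Knockout chicken DT40 cells expressing human TDP1 were exposed to compounds without camptothecin for a minimum 48 hr at 37 °C.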
TDP1 inh: blocks human tyrosyl-DNA phosphodiesterase 1; recombinant TDP1, AlphaScreen DNA substrate cleavage; AID 485290; 350,000 compounds, 0.28% hits; Q9NUW8; Potency, µM (series often up to 130 µM), for inactives: top-dose activity change, negative = inhibition, hits mostly inhibitors; further: potency means the concentration at half of the fitted maximal effect; on the % scale 0 is the no-effect control and ±100 the full control effect; nearly all actives have a fitted effect of over 40% in size
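Steps: enzyme plus compound, 15 min RT; add biotin/phosphotyrosine-FITC oligonucleotide (15 nM final), react 5 min; add donor/acceptor beads (10 ug/ml final), 10 min; read AlphaScreen. Tdp1 at 1 nM final.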
uPA generation: cell surface uPA generation inhibition. cell surface uPA generation assay, qHTS. AID 540303. Potency, µM (series often up to 38.3 µM), without a hit: at the top dose activity change, negative = inhibition, actives largely listed as inhibitors. 330,000 compounds, 0.31% hits; active means well fitted inhibition curve with a large enough effect; inconclusive means small, poorly fitted or top-dose-only effect; inactive means no such curve, though single readings can be large or run the other way; tested in mouse RAW 264.7 cells; further: potency means the concentration at half of the fitted maximal effect; on the % scale 0 is the no-effect control and ±100 the full control effect; nearly all actives have a fitted effect of over 55% in size
* = called active by the depositor; ? = inconclusive; nt = not tested or not shown. Most compounds without a hit are left out; they make up all but 16% or so of the library. Unless noted, the call rests on the fitted dose curve; in most records, active means well fitted curve in the direction sought with a large enough effect; inconclusive means small, poorly fitted or top-dose-only effect, or another doubt; inactive means no such curve, though single readings can be large; an effect the other way counts as inactive or inconclusive.

SMILES	DT40 TDP1 CPT	miR-21 FLuc	TDP1 cell noCPT	TDP1 inh	uPA generation
CSc1nnc(-c2ccccc2)o1	-2%	-7%	0%	-4%	nt
O=S1(=O)C=C(Sc2nc3ccccc3s2)c2ccccc21	0.82µM*	?	0.65µM*	7%	-10%
Cc1cccc(NC(=O)C2C3C=CC4(O3)C2C(=O)N(CCCN2CCCC2)C4C(=O)NC2CCCC(C)C2C)c1 (stereo not drawn)	-13%	0%	-27%	3%	-3%
CC[C@H](C)[C@H](NC(=O)[C@H](Cc1ccc(O)cc1)NC(=O)[C@H](CCCNC(=N)N)NC(=O)[C@H](CCCNC(=N)N)NC(=O)[C@H](CC(C)C)NC(=O)[C@H](CCC(N)=O)NC(=O)[C@@H](NC(=O)[C@H](CCC(=O)O)NC(=O)[C@H](Cc1ccc(O)cc1)NC(=O)[C@H](CCC(N)=O)NC(=O)[C@H](C)NC(=O)[C@H](CCCNC(=N)N)NC(=O)[C@H](CCC(N)=O)NC(=O)[C@H](CCC(=O)O)NC(=O)[C@H](Cc1cnc[nH]1)NC(=O)[C@@H](NC(=O)[C@H](C)NC(=O)[C@H](Cc1ccc(O)cc1)NC(=O)[C@H](CC(=O)O)NC(=O)CNC(=O)[C@@H]1CCCN1C(=O)[C@H](Cc1ccc(O)cc1)NC(=O)[C@H](CCSC)NC(=O)[C@@H]1CCCN1C(=O)[C@H](CCC(=O)O)NC(=O)[C@H](CC(C)C)NC(=O)[C@@H]1CCCN1C(=O)[C@H](C)N)[C@@H](C)O)[C@@H](C)O)C(=O)N[C@@H](CC(N)=O)C(=O)N[C@H](C(=O)N[C@@H](CC(C)C)C(=O)N[C@H](C(=O)N[C@@H](CCCNC(=N)N)C(=O)N1CCC[C@H]1C(=O)N[C@@H](CCCNC(=N)N)C(=O)N[C@@H](Cc1ccc(O)cc1)C(N)=O)[C@@H](C)O)[C@@H](C)O	nt	nt	nt	8%	nt
CCOCCOC(NC(=O)c1ccccc1)(C(F)(F)F)C(F)(F)F	10%	-3%	-4%	0%	10%
Cc1ccccc1N/C(=C(/C(Cl)=C(Cl)Cl)[N+](=O)[O-])n1nnc2ccccc21	16µM*	-2%	?	4%	-12%
N#CC1=C(N)Oc2n[nH]c(-c3cccnc3)c2C1c1ccc([N+](=O)[O-])o1 (stereo not drawn)	3.7µM*	?	2.9µM*	-8%	-7%
COc1ccccc1NC(=O)Nc1nn(C)c2cccc(N(C)C)c12	15µM*	6%	16µM*	nt	10%
CCN(CC)c1ccc(C(=O)OCc2cc(=O)oc3cc(O)ccc23)cc1	?	-8%	16µM*	4%	2%
CCN(CC)c1ccc2c(Cl)cc(=O)oc2c1	23µM*	6%	-29%	nt	-11%
CCN(CC)c1ccc2c(O)cc(=O)oc2c1	5%	-4%	1%	5%	2%
COc1cccc(-c2nnc3sc(-c4ccccn4)nn23)c1	?	-37%	23µM*	4%	-8%
COc1cccc(-c2nn3c(-c4cc(C)[nH]n4)nnc3s2)c1	16µM*	-20%	11µM*	0%	0%
Clc1ccccc1-c1nn2c(-c3ccncc3)nnc2s1	16µM*	-5%	23µM*	-3%	4%
COc1ccc(-c2nn3c(-c4cccc(C)c4)nnc3s2)cc1OC	?	nt	?	nt	3%
Cc1cccc(-c2nnc3sc(-c4ccccc4)nn23)c1	20µM*	-12%	13µM*	1%	nt
COc1cccc(-c2nn3c(-c4ccccn4)nnc3s2)c1	?	-39%	?	6%	-7%
O=C(Nc1ccc2c(c1)OCCO2)C1c2ccccc2OCC(=O)N1Cc1ccccc1 (stereo not drawn)	-22%	nt	1%	nt	nt
CC(CNc1nc2ccccc2n2cnnc12)c1ccccc1 (stereo not drawn)	?	-13%	?	nt	-12%
O=C(CNC(=O)c1ccco1)NCC(=O)OCc1ccccc1Cl	-2%	0%	-6%	nt	3%
COc1ccccc1N1CCN(C(=O)[C@H](C)NS(=O)(=O)c2ccc3c(c2)OCCCO3)CC1	-13%	nt	0%	nt	-10%
CCN(CC)CCCNC(=O)c1cc(-c2ccc(OC)c(OC)c2)on1	-2%	-8%	32%	-1%	nt
Cc1cc(C)n(C2=NS(=O)(=O)c3ccccc32)n1	?	-6%	?	3%	nt
CN1c2ccccc2-c2ccccc2S1(=O)=O	32µM*	nt	?	nt	-18%
N#Cc1c(NC(=S)NC(=O)C2CCCC2)sc2c1CCCCC2	?	-28%	?	-3%	-3%
CC1CC(C)CN(S(=O)(=O)c2ccc(C(=O)NCc3ccc4c(c3)OCO4)cc2)C1 (stereo not drawn)	16µM*	0%	?	8%	-6%
CC1CC(C)CN(S(=O)(=O)c2ccc(C(=O)NCCCn3ccnc3)cc2)C1 (stereo not drawn)	29µM*	?	?	4%	-5%
Cc1cccc(NC(=O)c2ccc(S(=O)(=O)N3CCC(C)CC3)cc2)n1	?	13%	16µM*	0%	-3%
Cc1nnc(NC(=O)c2ccc(S(=O)(=O)N3CC(C)CC(C)C3)cc2)o1 (stereo not drawn)	?	17%	16µM*	-5%	1%
O=C(NCc1ccc2c(c1)OCO2)c1ccc(S(=O)(=O)N2CCCCC2)cc1	-13%	7%	-1%	-9%	-6%
CCOC(=O)N1CCN(S(=O)(=O)c2ccc(C(=O)Nc3nnc(C)o3)cc2)CC1	3%	0%	-2%	3%	-4%
Cc1cc(C)nc(N/N=C/c2cc(C)n(CC(F)(F)F)c2C)n1	?	20%	?	5%	-11%
CCCNS(=O)(=O)c1ccc(OCC(=O)NCC2CCCO2)cc1 (stereo not drawn)	8%	0%	-6%	8%	-1%
CC1CN(S(=O)(=O)c2ccc(C(=O)Nc3nnc(-c4ccccn4)o3)cc2)CC(C)O1 (stereo not drawn)	-16%	0%	0%	9%	2%
Cc1nnc(NC(=O)c2ccc(S(=O)(=O)N3CCCCC3C)cc2)o1 (stereo not drawn)	-22%	4%	-20%	4%	1%
O=C(Nc1nnc(C2CC2)o1)c1ccc(S(=O)(=O)N2CCCCC2)cc1	?	13%	?	4%	-7%
CC1CCCCN1S(=O)(=O)c1ccc(C(=O)Nc2nnc(C3CC3)o2)cc1 (stereo not drawn)	16µM*	16%	?	6%	-8%
CC1CCN(S(=O)(=O)c2ccc(C(=O)Nc3nnc(C4CC4)o3)cc2)CC1	18µM*	24%	?	5%	-13%

5 of these compounds in a different format:
Values run as follows: DT40 TDP1 CPT, miR-21 FLuc, TDP1 cell noCPT, TDP1 inh, uPA generation
- COc1ccccc1NC(=O)Nc1nn(C)c2cccc(N(C)C)c12
  15µM*, 6%, 16µM*, nt, 10%
- CCOC(=O)N1CCN(S(=O)(=O)c2ccc(C(=O)Nc3nnc(C)o3)cc2)CC1
  3%, 0%, -2%, 3%, -4%
- Cc1cc(C)nc(N/N=C/c2cc(C)n(CC(F)(F)F)c2C)n1
  ?, 20%, ?, 5%, -11%
- CCN(CC)CCCNC(=O)c1cc(-c2ccc(OC)c(OC)c2)on1
  -2%, -8%, 32%, -1%, nt
- CCN(CC)c1ccc(C(=O)OCc2cc(=O)oc3cc(O)ccc23)cc1
  ?, -8%, 16µM*, 4%, 2%
